pKi: −log10 of the molar value.
Target: LRRK2 (Homo sapiens (Human), UniProt Q5S007, G2019S)
Assay: In Vitro LRRK2 LabChip Assay (LRRK2 Ki)
Assay type: biochemical
Description: In Vitro LRRK2 LabChip Assay This assay was used to determine a compound's potency in inhibiting activity of LRRK2 by determining, Kiapp, IC50, or percent inhibition values. In a polypropylene plate, LRRK2, fluorescently-labeled peptide substrate, ATP and test compound were incubated together. Using a LabChip 3000 (Caliper Life Sciences), after the reaction the substrate was separated by capillary electrophoresis into two populations: phosphorylated and unphosphorylated. The relative amounts of each were quantitated by fluorescence intensity. LRRK2 Ki was determined according to the equation: […]))). Ki values in Table 4 and elsewhere herein are shown in μM. Assay conditions and materials used were as follows: Final Assay Conditions: LRRK2 G2019S in 5 mM MgCl2: 5.2 nM (Invitrogen lot #567054A) […] LRRK2 12020T in 5 mM MgCl2: 25 nM (Invitrogen lot #43594) Substrate: 1 μM ATP: 130 μM […] Temperature: ambient […] ATP^app Kms: G2019S in 5 mM MgCl2: 130 μM G2019S in 1 mM MnCl2: 1 μM […] I2020T in 5 mM MgCl2: 14 μM Materials: Solid Support: Black 50 μL volume polypropylene 384 well plate (MatriCal cat #MP101-1-PP) Kinase: LRRK2 G2019S (Invitrogen cat #PV4882). • LRRK2 Wild type (Invitrogen cat #PV4874). Substrate: 5[…] Non-binding plate: 384 well clear V-bottom polypropylene plates (Greiner cat #781280). ATP: 10 mM ATP (Cell Signaling cat #9804). Triton X-100: Triton X-100. […]

Protein sequences, listed by entry. Tags and fused reporters are not part of them. Residues count along the entry.
UniProt Q5S007, 970-2527 G2019S: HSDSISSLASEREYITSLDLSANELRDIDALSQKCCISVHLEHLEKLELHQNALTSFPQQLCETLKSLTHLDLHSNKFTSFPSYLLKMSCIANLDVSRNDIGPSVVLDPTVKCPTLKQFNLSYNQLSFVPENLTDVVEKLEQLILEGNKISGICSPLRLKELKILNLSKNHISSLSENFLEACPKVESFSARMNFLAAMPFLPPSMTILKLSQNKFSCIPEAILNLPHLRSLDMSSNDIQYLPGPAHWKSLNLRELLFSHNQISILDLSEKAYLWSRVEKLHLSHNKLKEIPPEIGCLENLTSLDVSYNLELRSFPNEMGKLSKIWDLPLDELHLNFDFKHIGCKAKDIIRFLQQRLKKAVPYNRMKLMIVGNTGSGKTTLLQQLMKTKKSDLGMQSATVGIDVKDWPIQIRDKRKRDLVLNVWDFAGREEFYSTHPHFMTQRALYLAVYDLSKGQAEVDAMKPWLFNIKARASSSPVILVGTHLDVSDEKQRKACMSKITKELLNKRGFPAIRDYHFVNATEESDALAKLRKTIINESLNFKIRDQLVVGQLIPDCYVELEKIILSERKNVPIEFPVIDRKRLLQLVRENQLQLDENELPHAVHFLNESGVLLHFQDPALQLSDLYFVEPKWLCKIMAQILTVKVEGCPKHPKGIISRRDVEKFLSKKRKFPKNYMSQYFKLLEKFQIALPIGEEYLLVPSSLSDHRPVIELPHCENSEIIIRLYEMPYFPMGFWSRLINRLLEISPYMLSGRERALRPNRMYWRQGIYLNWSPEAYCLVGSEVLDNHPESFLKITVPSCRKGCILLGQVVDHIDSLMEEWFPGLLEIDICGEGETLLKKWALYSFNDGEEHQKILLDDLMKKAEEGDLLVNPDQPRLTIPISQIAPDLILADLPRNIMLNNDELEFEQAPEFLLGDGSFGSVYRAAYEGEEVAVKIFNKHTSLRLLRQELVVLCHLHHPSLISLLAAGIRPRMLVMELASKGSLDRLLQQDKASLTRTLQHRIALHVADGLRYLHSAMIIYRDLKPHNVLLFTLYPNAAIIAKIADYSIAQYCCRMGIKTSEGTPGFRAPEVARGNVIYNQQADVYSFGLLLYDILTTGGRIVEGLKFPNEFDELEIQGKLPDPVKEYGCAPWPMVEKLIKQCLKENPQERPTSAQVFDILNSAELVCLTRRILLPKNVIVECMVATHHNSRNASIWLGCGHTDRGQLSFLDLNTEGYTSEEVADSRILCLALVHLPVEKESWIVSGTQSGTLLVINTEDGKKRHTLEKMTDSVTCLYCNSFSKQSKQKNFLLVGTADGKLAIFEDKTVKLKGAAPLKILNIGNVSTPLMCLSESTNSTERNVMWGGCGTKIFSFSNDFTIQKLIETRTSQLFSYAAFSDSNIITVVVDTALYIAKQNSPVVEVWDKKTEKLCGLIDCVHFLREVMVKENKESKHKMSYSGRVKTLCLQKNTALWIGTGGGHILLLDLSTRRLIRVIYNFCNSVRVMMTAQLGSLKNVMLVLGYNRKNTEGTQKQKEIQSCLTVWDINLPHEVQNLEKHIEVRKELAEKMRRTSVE

CNc1nc(Nc2ccc(-c3nncn3C)cc2OC)ncc1C(F)(F)F [Compound 40, N2-(2-methoxy-4-(4-methyl-4H-1,2,4-triazol-3-yl)phenyl)-N4-methyl-5-(trifluoromethyl) pyrimidine-2,4-diamine]
pKi: 8.70
